Values quoted from earlier work as cited in patent US20110268822A1, “METHODS FOR SYNTHESIZING KOTALANOL AND STEREOISOMERS AND ANALOGUES THEREOF, AND NOVEL COMPOUNDS PRODUCED THEREBY” (SIMON FRASER UNIVERSITY, priority 2008, published 2011).

Chains of the proteins cited; added tags and fusions are not shown. Residues count along the entry.
UniProt O43451, 87-954 limits assumed: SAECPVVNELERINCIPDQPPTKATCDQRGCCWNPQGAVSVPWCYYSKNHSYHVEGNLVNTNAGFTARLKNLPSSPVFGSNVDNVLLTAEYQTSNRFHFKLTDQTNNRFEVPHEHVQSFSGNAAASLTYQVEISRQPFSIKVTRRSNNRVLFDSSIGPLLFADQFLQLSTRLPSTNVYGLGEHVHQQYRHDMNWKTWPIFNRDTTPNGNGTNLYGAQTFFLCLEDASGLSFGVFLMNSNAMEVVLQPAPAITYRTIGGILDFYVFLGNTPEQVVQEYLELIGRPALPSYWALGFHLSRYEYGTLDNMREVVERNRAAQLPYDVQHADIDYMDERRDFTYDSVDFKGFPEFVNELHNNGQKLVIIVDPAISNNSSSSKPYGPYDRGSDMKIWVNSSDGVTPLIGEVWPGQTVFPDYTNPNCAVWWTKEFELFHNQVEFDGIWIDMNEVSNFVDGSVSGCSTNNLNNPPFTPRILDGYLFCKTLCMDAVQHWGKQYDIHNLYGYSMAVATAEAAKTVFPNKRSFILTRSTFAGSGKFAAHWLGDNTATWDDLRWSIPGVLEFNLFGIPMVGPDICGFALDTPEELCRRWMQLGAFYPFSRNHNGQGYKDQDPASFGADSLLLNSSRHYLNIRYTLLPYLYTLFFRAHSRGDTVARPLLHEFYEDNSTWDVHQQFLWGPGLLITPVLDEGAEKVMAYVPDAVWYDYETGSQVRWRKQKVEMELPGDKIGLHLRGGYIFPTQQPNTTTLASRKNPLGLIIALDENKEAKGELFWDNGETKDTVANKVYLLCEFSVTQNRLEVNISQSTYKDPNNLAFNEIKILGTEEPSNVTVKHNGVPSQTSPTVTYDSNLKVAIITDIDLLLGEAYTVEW

Molecular target: recombinant human maltase glucoamylase (MGA) (Homo sapiens, UniProt O43451)
Details: maltose as the substrate; NA: not active; values from the inventors' earlier publications; cited from earlier work

Row | SMILES | Ki
1 | O=S(=O)([O-])OC(C(O)C[Se+]1CC(O)C(O)C1CO)C(O)C(O)CO (stereo not drawn) [Compound 15] | 140 nM
2 | O=S(=O)([O-])OC(C(O)C[Se+]1CC(O)C(O)C1CO)C(O)C(O)CO (stereo not drawn) [Compound 9] | 100 ± 20 nM
3 | O=S(=O)([O-])OC(C(O)C[Se+]1CC(O)C(O)C1CO)C(O)C(O)CO (stereo not drawn) [Compound 11] | 100 nM
